ChEMBL document CHEMBL1140205, “Discovery and development of fatty acid amide hydrolase (FAAH) inhibitors” (J Med Chem, 2008)

Protein sequences, listed by entry. Tags and fused reporters are not part of them.
UniProt O00519, whole entry, looked up: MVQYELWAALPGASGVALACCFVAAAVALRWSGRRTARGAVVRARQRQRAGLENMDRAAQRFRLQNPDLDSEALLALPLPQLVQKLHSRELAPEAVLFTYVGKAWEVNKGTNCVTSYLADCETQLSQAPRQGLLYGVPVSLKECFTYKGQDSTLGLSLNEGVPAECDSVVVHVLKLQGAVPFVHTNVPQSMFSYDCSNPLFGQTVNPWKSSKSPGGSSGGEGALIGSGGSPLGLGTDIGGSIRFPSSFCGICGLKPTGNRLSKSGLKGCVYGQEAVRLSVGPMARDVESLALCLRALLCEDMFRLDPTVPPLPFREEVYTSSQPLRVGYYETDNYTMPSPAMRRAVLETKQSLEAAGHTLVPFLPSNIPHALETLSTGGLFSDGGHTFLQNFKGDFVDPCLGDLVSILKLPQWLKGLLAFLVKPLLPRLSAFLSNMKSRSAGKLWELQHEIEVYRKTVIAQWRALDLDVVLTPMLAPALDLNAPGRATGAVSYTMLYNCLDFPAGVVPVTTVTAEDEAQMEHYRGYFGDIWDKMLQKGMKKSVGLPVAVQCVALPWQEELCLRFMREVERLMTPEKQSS

Target: Fatty-acid amide hydrolase 1 (Homo sapiens, UniProt O00519)
Experiment: Inhibition of human FAAH

O=C(O)c1cncc(OC(=O)N2CCC(CCCc3ccccc3Cl)CC2)c1
IC50: 12 nM
